The record followed here is ChEMBL document CHEMBL1151696 (Bioorg Med Chem, 2008).

This test has as its target Glutamate NMDA receptor. Briefly: Antagonist activity at NMDA receptor in cerebellar granule neurons assessed as inhibition of NMDA-induced increase in intracellular calcium concentration by fluorometric assay. The test is classed as functional, cell-based. For orientation: Calcium flux is commonly read through the fluorescence of an indicator in the cells.

One may read the IC50 as the point on the concentration scale where inhibition reaches its midpoint. Regarding `CC12CC3CC(C)(C1)CC(N)(C3)C2` [MEMANTINE], the IC50 was determined as 1.5 µM.
